We go through one substance from patent US6534491B2, “Preparation and use of ortho-sulfonamido bicyclic heteroaryl hydroxamic acids as matrix metalloproteinase and tace inhibitors” (priority 1996, dated 2003).

The test addresses MMP-13 (Homo sapiens, UniProt P45452). The experiment in a line: MMP-13 inhibition (thiopeptide or fluorescent peptide substrate). It counts as biochemical. The note with it: read-out: MMP-13 IC50.

pIC50: −log10 of the molar value.

With “4-{[4-(4-Chlorophenyloxy)benzenesulfonyl]methylamino}-1,3-dimethyl-1H-pyrazolo[3,4-b]pyridine-5-carboxylic Acid, Hydroxyamide [Example 89]”, the negative logarithm of the IC50 (pIC50) is 8.96.
